One substance from patent US20020086027A1, “Composition and method for enhancing immunological memory response” (priority 1998, published 2002) can be followed below.

For the experiment, the system named is human T cells. The experiment is described as follows: Secondary (recall) alloproliferative response of T cells primed in vitro. The format is cell-based. The following applies: exogenous IL-2 alone during priming. As to the method: In this system, we have used responses to first exposure as an indication of primary responses. When cells stimulated in this fashion are rested in culture and then restimulated with the same stimulator PBMCs, the 'recall' response measured are taken as an indication of immune memory. Proliferation is measured by the incorporation of radioactive tritiated thymidine in dividing cells. For priming, responder and stimulator cells mixed in 2-5 ml cultures in a ratio of 1:1-3:1. After five days of incubation, the cells were harvested, counted and viable cells used as primed responders with g-irradiated allostimulators in secondary alloproliferation assays, which were pulsed with (H^3)-thymidine after four days for estimating cell proliferation. For flow cytometric analysis, cells were separated from debris by Ficoll-Paque gradient centrifugation before staining. […] Cells were then harvested and washed extensively, and viable cells were counted and used as primed responders in a recall assay with freshly isolated and irradiated stimulator PBMCs or with graded doses of either IL-2 (Boenringer Mannheim Corp., […], Germany) or PHA (Boehnnger Mannheim Corp.), along with 1×10^5 irradiated responder PBMCs.

For the substance “IL-2: recombinant IL-2 (Boehringer Mannheim)”, the recall capability is recorded as “does neither enhance”.
